ChEMBL document CHEMBL1155252, “Identification of PDE4B Over 4D subtype-selective inhibitors revealing an unprecedented binding mode” (Bioorg Med Chem, 2009)
pIC50: −log10 of the molar value.

Sequences of proteins named here, by UniProt entry; tags and fusion partners are left off. A change or cut given only in a name is not applied to a line headed by its entry.
UniProt Q07343: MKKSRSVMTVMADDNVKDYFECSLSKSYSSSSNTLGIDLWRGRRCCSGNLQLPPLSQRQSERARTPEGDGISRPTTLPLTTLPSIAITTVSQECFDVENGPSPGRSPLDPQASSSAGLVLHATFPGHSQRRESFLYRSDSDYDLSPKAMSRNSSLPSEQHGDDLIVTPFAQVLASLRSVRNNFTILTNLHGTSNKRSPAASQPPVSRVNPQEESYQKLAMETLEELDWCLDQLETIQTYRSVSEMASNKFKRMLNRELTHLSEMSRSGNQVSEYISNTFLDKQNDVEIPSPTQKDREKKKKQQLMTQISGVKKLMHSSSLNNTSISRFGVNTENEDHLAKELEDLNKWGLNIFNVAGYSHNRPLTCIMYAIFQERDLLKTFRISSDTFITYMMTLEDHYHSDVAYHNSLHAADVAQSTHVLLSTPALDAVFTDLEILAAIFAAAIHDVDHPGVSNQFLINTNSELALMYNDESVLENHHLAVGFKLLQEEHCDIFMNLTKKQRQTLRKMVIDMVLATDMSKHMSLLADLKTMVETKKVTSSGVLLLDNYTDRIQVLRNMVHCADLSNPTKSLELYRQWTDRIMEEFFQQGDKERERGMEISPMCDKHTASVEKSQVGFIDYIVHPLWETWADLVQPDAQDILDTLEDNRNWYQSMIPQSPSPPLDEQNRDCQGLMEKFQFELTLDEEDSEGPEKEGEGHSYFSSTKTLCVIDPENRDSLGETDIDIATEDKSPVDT
UniProt Q08499: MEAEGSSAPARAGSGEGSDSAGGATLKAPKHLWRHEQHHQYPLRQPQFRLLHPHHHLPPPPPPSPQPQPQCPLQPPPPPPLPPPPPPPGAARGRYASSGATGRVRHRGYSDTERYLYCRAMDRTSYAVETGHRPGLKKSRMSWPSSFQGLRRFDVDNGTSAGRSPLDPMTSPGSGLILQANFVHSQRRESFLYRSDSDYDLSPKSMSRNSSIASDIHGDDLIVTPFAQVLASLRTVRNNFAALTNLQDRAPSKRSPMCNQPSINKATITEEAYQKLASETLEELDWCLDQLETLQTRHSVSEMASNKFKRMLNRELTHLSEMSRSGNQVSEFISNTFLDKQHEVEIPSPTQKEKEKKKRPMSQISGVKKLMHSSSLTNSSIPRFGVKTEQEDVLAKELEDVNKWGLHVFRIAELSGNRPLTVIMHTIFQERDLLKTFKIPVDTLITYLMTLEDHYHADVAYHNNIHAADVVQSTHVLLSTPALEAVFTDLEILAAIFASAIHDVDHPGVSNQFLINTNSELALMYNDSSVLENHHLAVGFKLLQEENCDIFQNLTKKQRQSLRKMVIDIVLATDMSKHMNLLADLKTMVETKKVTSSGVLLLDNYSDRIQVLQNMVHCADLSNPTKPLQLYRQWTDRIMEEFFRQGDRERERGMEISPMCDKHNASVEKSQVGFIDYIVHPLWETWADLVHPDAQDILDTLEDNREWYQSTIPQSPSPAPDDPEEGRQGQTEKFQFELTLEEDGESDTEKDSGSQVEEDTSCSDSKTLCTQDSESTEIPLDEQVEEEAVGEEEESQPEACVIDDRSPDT

Assays:
[1] = biological target: 3',5'-cyclic-AMP phosphodiesterase 4B (Homo sapiens, UniProt Q07343); assay: Inhibition of PDE4B by luciferase-coupled assay
[2] = biological target: 3',5'-cyclic-AMP phosphodiesterase 4D (Homo sapiens, UniProt Q08499); assay: Inhibition of PDE4D by luciferase-coupled assay

## CC1CCc2c(sc(NC(=O)c3ccccc3[N+](=O)[O-])c2C(N)=O)C1 (configuration not stated)
[1]
  pIC50: 7.30
[2]
  pIC50: 6.30
